## Binding of CDR-mutated scFvs to a peptide of the spike HR2 region

The target is the same throughout: PDVDLGDISGINAS, from the HR2 region of SARS-CoV-2 spike.

Parent: Ab-14, a human scFv built as VH, the linker GGGGSGGGGSGGGGS, VL. Only the CDRs of the heavy chain vary.
VH: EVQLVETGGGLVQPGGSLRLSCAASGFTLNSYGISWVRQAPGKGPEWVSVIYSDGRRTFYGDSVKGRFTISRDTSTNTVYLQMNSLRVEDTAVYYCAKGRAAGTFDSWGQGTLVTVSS
VL: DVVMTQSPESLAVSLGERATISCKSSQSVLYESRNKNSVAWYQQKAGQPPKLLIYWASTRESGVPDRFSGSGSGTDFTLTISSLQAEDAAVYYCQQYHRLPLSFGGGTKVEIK

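The parent was found by panning a naive human phage display library on the peptide. The variants were designed computationally from a first round of random CDR variants and then made and measured. Several design methods are mixed in this list. The scFvs were displayed on barcoded MATa yeast, the peptide on MATalpha yeast. Binding brings cells together so that they mate, and sequencing counts the barcode pairs among the diploids. A regression on co-assayed BCL2-family reference pairs converts the normalised counts of each replicate to an apparent Kd. The assay was run in six technical replicates.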

Each variant is given by its three heavy chain CDRs, as the data file delimits them; those of the parent are GFTLNSYGIS, VIYSDGRRTFYGDSVK, GRAAGTFDS. Values are log10 of the apparent Kd in nM; lower means stronger binding. Averages over replicates are reported, and they cover detected replicates only. "not detected" means that the variant was in the library but no mating with the target was seen in any replicate; the authors take this as a sign of poor binding, and no number exists. Some sequences occur more than once in the pool; their replicates are pooled. The authors' rule: three or more of the six replicates give a measured affinity, fewer mean a poor binder. As a blank, each scFv also met three strains without target: over all heavy chain designs, 1% of these pairings were detected, typically at 2.08 and seldom below 0.84. Of ten entries with the parent sequence, four were seen in most replicates (averages 0.34 to 2.37), three in one and three in none, so single entries are noisy. Values of this round are not directly comparable with the first-round values of the same sequences.

"mean, log10 nM",replicates with signal,CDR-H1,CDR-H2,CDR-H3
not detected,0/6,GWTLNSYAIS,VIYSDGRRTFYDDSVK,GQLAGTFDS
0.13,6/6,GFTLNSYGIS,VIYSDGRRTFYSDSVK,GKTAGTFDT
not detected,0/6,GFDLNEYGIS,VIYADGMRKAYADDVK,GNVAGTFDV
-0.87,6/6,GFDLNEYGIS,VIYADGQRTFYSDSVK,GEVAGTFDQ
2.15,3/6,GFTLNEYGIS,VIYSDGRRWFYTDSVK,GRFAGTFDS
0.91,4/6,GFQLNSYGIS,VIYSDGRRTFYSDSVK,GMAAGTFDS
-0.31,6/6,GFDLEEYGIS,VIYADGRRTFYSDSVK,GEAAGTFDF
-0.46,6/6,GFDLDEYGIS,VIYADGMRTAYADSVK,GEVAGTFDV
not detected,0/6,GFDIDEYGIS,VIYADGTRTAVDPSFK,GQMAGFFDE
not detected,0/6,GFSIDEQGIS,VIYADGIRASYAPKVK,GQYAGDFIE
-0.11,6/6,GFDLNEYGIS,VIYADGKRTAYADSVK,GNEAGTFDL
-0.43,6/6,GFNLNEYGIS,VIYADGRRKFYADSVK,GETAGTFDV
0.57,6/6,GFTLNDYGIS,VIYSDGRRTEYGDSVK,GRTAGTFDS
not detected,0/6,GDTLNSYGIS,VIYSDGRRTFIGDSVK,GRAAGTFDL
0.54,1/6,GFTLDSYGIS,VIYADGRRTFYGDSVK,GRAAGTFYS
not detected,0/6,GFNLNEYGIS,VIYADGQRKFYADSVK,GNTAGTFDS
not detected,0/6,GFGLDEYGIS,VIYADGQRYAYKNSVK,GGDGINGLY
-0.21,6/6,GFTLNEYGIS,VIYSDGRRTFYKDSVK,GREAGTFDS
2.52,2/6,GFDLNEYGIS,VIYADGRRTFYADSVK,GESAGTFDI
not detected,0/6,GFNLSEYGIS,VIYADGMRSNYANSVK,GHKGNFFID
2.33,2/6,GFDLNEYGIS,VIYADGVRTAYADSVK,GENAGTFVV
not detected,0/6,GFTLNSYGIS,VIYADGRRTFYGDSVK,GWAAGTFKM
1.73,6/6,GFDLNSYGIS,VIYSDGRRTFYSDSVK,GEAGGTFDS
not detected,0/6,GFTLNSYGIQ,VIYSDGRHTFYDDCVK,GQLRGTFDS
not detected,0/6,GFTLNSYGIS,VIYSDGRRTFYDDSVK,GQLAGTFKN
not detected,0/6,GFHLNSYGWS,VIYSDGRRTFYGDSVK,GRCALTFDS
0.16,5/6,GFTINQQGIS,VIYSDGRRTYYGDSVK,GAQAGTFDS
0.17,6/6,GFTLNEYGIS,VIYSDGRRTFYSDSVK,GMAAGTFDN
-0.50,6/6,GFDLNEYGIS,VIYADGMRTAYIDSVK,GQNAGTFDV
0.03,6/6,GFDLNSYGIS,VIYSDGKRTFYGDSVK,GRMAGTFDS
not detected,0/6,GFSLNEYGIS,VIYADGTRMAYTNSVK,GLMGFVGGM
-0.09,12/12,GFTLNSYGIS,VIYADGRRTFYGDSVK,GDAAGTFDS
1.66,6/6,GFTLESYGIS,VIYSDGRRTFYADKVK,GRAAGTFDS
1.01,4/6,GFTLNSYGIS,VIYSDGQRTFYGDSVK,GRVAGTFDL
1.61,6/6,GFTLNSYGIS,VIYSDGRRTAYGDSVK,GKAAGTFDD
1.68,2/6,GFVLNSYGIS,VIYSDGRRTFYTDSVK,GRTAGTFDS
-0.13,6/6,GFDLNEYGIS,VIYADGSRTAYSDSVK,GEVAGTFDM
not detected,0/6,HFSLNSYGIS,VIYSDGRRTFYGDSVK,GRTAGTFDS
0.43,6/6,GFTLNEYGIS,VIYSDGRRTMYGDSVK,GRLAGTFDS
0.06,6/6,GFSLNSYGIS,VIYSDGRRTAYDDSVK,GRAAGTFDS
2.18,3/6,GFTLNEYGIS,VIYSDGRRTFYPDSVK,GRFAGTFDD
1.73,6/6,GFVLNSYGIS,VIYSDGRRTFYADQVK,GQTAGTFDS
-0.39,6/6,GFDLDEYGIS,VIYADGVRKAYADDVK,GNVAGTFDV
-0.30,6/6,GFDLNEYGIS,VIYADGLRTSYADSVK,GQLAGTFDQ
2.43,3/6,GFPLNSYGIS,VIYSDGRRTFYGDSVK,RQAAGTKDS
not detected,0/6,GFNLDEYGIS,VIYADGARTAYADKVK,GFNWNISVN
0.90,6/6,GFALNSYGIS,VIYSDGRRTAYGDSVK,GRNAGTFDI
not detected,0/6,GFDLGEYGIS,VIYADGQRFAYAQEFK,GEAGGAFDL
not detected,0/6,GFTLNSYGIT,VIYSDGRRTFYGDSVK,GRVAGTFDS
-0.61,6/6,GFDLDEYGIS,VIYADGRRTFYSDSVK,GEAAGTFDS
not detected,0/6,GFTLNSYGIS,VIYSDGRRTFYGDSVK,GRAAGEFDS
not detected,0/6,GFDLDEYGIS,VIYADGMRSYYADSVK,GTNGGTIEA
0.34,6/6,GFDLNSYGIS,VIYSDGKRTFYSDSVK,GKAAGTFDS
-0.14,6/6,GFSLNEYGIS,VIYSDGRRTMYGDSVK,GRAAGTFDS
-0.40,6/6,GFDLNEYGIS,VIYADGRRTQYIDSVK,GETAGTFDL
0.74,2/6,GFTLNEYGIS,VIYSDGRRTFYTDSVK,GKFAGTFDS
2.16,6/6,GFQLNSYGIS,VIYSDGRRTFYVDSVK,GNAAGTFDS
not detected,0/6,GFCLNSYGIS,VIYSDGRRTFYIDSVK,GEAAGTFDK
-0.72,6/6,GFDLNEYGIS,VIYADGVRTFYADSVK,GNNAGTFDM
2.23,2/6,GMDLDEYGIS,VIYADGQRRQYAANFK,GVNIDGFDL
2.52,4/6,GFTLNDYGIS,VIYSDGRRTFYGDSVK,GRAAGTFCS
1.45,6/12,GFHLNSYGIS,VIYSDGRRTFYGDSVK,GRLAGTFDS
-0.75,6/6,GFDLNEYGIS,VIYADGQRTAYADDVK,GNVAGTFDI
-0.37,6/6,GFDLNEYGIS,VIYADGRRTFYADSVK,GNQAGTFDE
1.38,6/6,GFDLNEYGVS,VIYADGHRAQYTEDVK,GGNSGAVDM
not detected,0/6,GFTLNDYGIS,VNYSDGRRTQYISSVK,GRPAGTFDS
1.89,4/6,GFTLNSYGIS,VIYSDGRRTFYDDSVE,GRAAGQFDS
2.67,1/6,GFWLNKYGIS,VIYSDGRRTFYGDSVK,GRWAGTFDS
not detected,0/6,GFDLEEYGIS,VIYADGMRTQYINAVK,GIAGDQMDV
1.08,6/6,GFNLDEYGIS,VIYADGKRTFYADSVK,GEVAGTFDV

Picked from the list: the 4 lowest averages where every replicate gave a value.

CDR-H1,CDR-H2,CDR-H3,"mean, log10 nM",replicates with signal
GFDLNEYGIS,VIYADGQRTFYSDSVK,GEVAGTFDQ,-0.87,6/6
GFDLNEYGIS,VIYADGQRTAYADDVK,GNVAGTFDI,-0.75,6/6
GFDLNEYGIS,VIYADGVRTFYADSVK,GNNAGTFDM,-0.72,6/6
GFDLDEYGIS,VIYADGRRTFYSDSVK,GEAAGTFDS,-0.61,6/6

Source: Li et al. 2023 (doi:10.1038/s41467-023-39022-2), MIT Lincoln Laboratory and A-Alpha Bio; data file from the FLAb repository.